Values of other authors, collected in paper PMC6832141, “Synthesis and Cyclooxygenase Inhibition of Sulfonamide-Substituted (Dihydro)Pyrrolo[3,2,1-hi]indoles and Their Potential Prodrugs” (Molecules, 2019).

Tested on: hCOX-2
Conditions: read-out: IC50 hCOX-2; cited from earlier work

## Cc1onc(-c2ccccc2)c1-c1ccc(S(N)(=O)=O)cc1 [valdecoxib, 4-(5-methyl-3-phenyl-4-isoxazolyl)benzenesulfonamide]
  IC50: 5 nM
